Screening data from PubChem BioAssay.
Rows were chosen to be rich in hits. Some 2.4% of all compounds tested hit in one or more screens of this group.
Tb PFK inh – T. brucei PFK enzyme inhibition | T. brucei PFK, ADP-Glo luminescence | AID 485367 | 0.17% of 330,000 active | Potency, µM (highest dose often 57.5 µM), actives largely listed as inhibitors | O15648; further: nearly all actives have a fitted effect of over 60% in size
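PFK 1.25 nM, F6P 0.5 mM, ATP 0.1 mM, 0.1 M TEA pH 8.0, 5 mM MgCl2, 0.01% Tween20, 0.1% BSA; 45 min RT. ADP-Glo readout. qHTS titration up to 57 uM; curves fitted, compounds curve-classed.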
PGK inhibitor – inhibitors of T. brucei phosphoglycerate kinase | P07378 | PGK/GAPDH coupled, Kinase-Glo luminescence, 60 min | Potency, µM (doses to about 57.5 µM), usual class: inhibitors | 0.043% of 380,000 active | AID 602233; further: nearly all actives have a fitted effect of over 60% in size
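Recombinant glycosomal PGK reaction used 1,3-bisphosphoglycerate generated in-well by GAPDH (100nM final) in 100mM TEA pH 7.6, 5mM MgCl2, 0.01% Tween-20. After 60 minutes at room temperature, ATP was read by Kinase-Glo Plus luminescence end-point.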
ELG1 DNA repair – blocks ELG1-dependent DNA repair in HEK293T cells. HEK293T ELG1-luciferase reporter, luminescence, 16 h; DNA damage induced by 5-fluorouridine. 2.3% of 330,000 active. AID 504467. Potency, µM (top dose mostly 46.1 µM), actives largely listed as inhibitors; further: nearly all actives have a fitted effect of over 55% in size
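Cells (2,000 per well) received 5-fluorouridine plus test compound or DMSO and were incubated 16 hr at 37 °C, 5% CO2. Luciferase activity was read by luminescence 30 min after ONE-Glo addition; signal suppression marked inhibition of damage-induced ELG1 function.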
Rango release inh – inhibitors of RanGTP-induced Rango-importin beta complex dissociation. 0.071% of 340,000 active. Potency, µM (series often up to 46.1 µM). Biochemical FRET Rango-importin beta, RanGTP-induced dissociation; calls by dose curve; further: nearly all actives have a fitted effect of over 45% in size
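Compounds preincubate 5 min with complex of recombinant Rango and importin beta in PBS with 1 mM DTT. Ran (0.6 uM) loaded with 2 mM GTP plus 0.2 uM RCC1 starts dissociation; FRET is recorded 45 min later.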
Rango complex inh – inhibitors of Rango-importin beta complex formation | Rango CFP/YFP FRET sensor + importin beta, 45 min | Potency, µM (series often up to 92.2 µM) | 0.031% of 340,000 active; calls by dose curve; further: nearly all actives have a fitted effect of over 15% in size
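Inhibition scored from the CFP 486 nm/YFP 530 nm FRET ratio 45 min after adding 0.125 microM importin beta to 50 nM Rango biosensor preincubated 5 min with compound (room temperature, PBS with DTT, Tween-20, BSA). No-importin wells as positive control.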
PKM2 activator – activators of human pyruvate kinase M2 | P14618 | purified PKM2, Kinase-Glo ATP luminescence, activation; response scale: 0% is enzyme alone, no compound | Potency, µM (series often up to 57.5 µM), usual class: activators | 0.34% of 260,000 active | AID 1631; further: nearly all actives have a fitted effect of over 55% in size
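ATP formation by purified human PK-M2, quantified via coupled luciferase luminescence after 1 h at room temperature with 0.1 mM ADP and 0.5 mM PEP final.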
Large screens that a line does not name were inactive. Unless noted, the call rests on the fitted dose curve; in most records, active means well fitted curve in the direction sought with a large enough effect; inconclusive means small, poorly fitted or top-dose-only effect, or another doubt; inactive means no such curve, though single readings can be large; an effect the other way counts as inactive or inconclusive.

O=C(NCc1ccccc1)C(c1ccc(F)cc1)N(Cc1cccs1)C(=O)c1cnccn1 (stereo not given)	ELG1 DNA repair 13µM
CCCc1cc(=O)n2nc(N3CCC(C(=O)Nc4cccc(C(C)=O)c4)CC3)sc2n1	none (no result: PKM2 activator)
Cc1cc(N2CCN(C)CC2)nc2ccc(NC(=O)Nc3ccccc3Br)cc12	none (no result: Tb PFK inh, ELG1 DNA repair, Rango release inh, Rango complex inh, PKM2 activator)
Cc1ccc2c(c1)C(c1ccccc1)N(C(=O)c1ccccc1[N+](=O)[O-])CC(=O)N2 (stereo not given)	ELG1 DNA repair 21µM (no result: PKM2 activator)
Cc1ccc(C(=O)N2CC(=O)Nc3ccc(C)cc3C2c2ccccc2)cc1 (stereo not given)	none (no result: PKM2 activator)
O=C1CN(C(=O)c2ccccc2[N+](=O)[O-])C(c2ccccc2)c2cc(Br)ccc2N1 (stereo not given)	ELG1 DNA repair 18µM (no result: PGK inhibitor, PKM2 activator)
COc1ccc(-c2nc(CSCC(=O)NC3CCCc4ccccc43)c(C)o2)cc1OC (stereo not given)	ELG1 DNA repair 16µM
COc1ccc(-c2nc(CSCC(=O)N3CCN(c4cccc(C)c4)C(C)C3)c(C)o2)cc1OC (stereo not given)	ELG1 DNA repair 15µM
COc1ccc(-c2nc(CSCC(=O)NC3CCCC3)c(C)o2)cc1OC	ELG1 DNA repair 15µM (no result: PKM2 activator)
Cc1ccccc1NC(=O)c1c(NC(=O)Cc2ccccc2)sc2c1CCC2	none (no result: Tb PFK inh, ELG1 DNA repair, Rango release inh, Rango complex inh, PKM2 activator)
CCC1CCCCN1CCCNC(=O)c1sc2nc(C)cc(C)c2c1-n1cccc1 (stereo not given)	none (no result: Tb PFK inh, ELG1 DNA repair, Rango release inh, Rango complex inh, PKM2 activator)
COc1ccc2nc(NC(=S)N(C)C)sc2c1	ELG1 DNA repair inconclusive
COC(=O)c1cc(NC(=O)c2cc3c(-c4ccccc4F)nn(C)c3s2)cc(C(=O)OC)c1	none (no result: Tb PFK inh, ELG1 DNA repair, Rango release inh, Rango complex inh, PKM2 activator)
COc1ccc(CCNC(=O)CCCn2c(=O)c3cccn3c3cccnc32)c(OC)c1OC	ELG1 DNA repair 13µM (no result: PKM2 activator)
CN1CCN(C(c2cccs2)c2nnnn2Cc2ccc(F)cc2)CC1 (stereo not given)	none
COCC(C)n1c(SCc2cc(C(=O)OC)c(C)o2)nc2ccccc2c1=O (stereo not given)	ELG1 DNA repair inconclusive
COC(=O)c1cc(CSc2nnc(-c3ccccc3)c(-c3ccccc3)n2)oc1C	ELG1 DNA repair 21µM
CC(=O)c1ccc(NC(=O)CN2C(=O)/C(=C/C=C/c3ccccc3)SC2=S)cc1	Rango complex inh 29µM
O=C(O)CN1C(=O)/C(=C/C=C/c2ccccc2)SC1=S	none (no result: PGK inhibitor)
Oc1ccc(Br)cc1/C=N/n1c(C2CCCCC2)n[nH]c1=S	ELG1 DNA repair inconclusive, Rango release inh 15µM, Rango complex inh inconclusive (no result: PKM2 activator)
O=c1ccc(Cl)nn1-c1ccccc1	none (no result: Tb PFK inh, ELG1 DNA repair, PKM2 activator)
CC1CNC(=S)N(c2ccccc2)C1=O (stereo not given)	none (no result: Tb PFK inh, ELG1 DNA repair, PKM2 activator)
CCN(CC)C(=O)CSc1nnc(-c2cc(-c3ccc(Cl)cc3)nc3ccccc23)o1	ELG1 DNA repair inconclusive
CN(C)C(=O)CSc1nnc(-c2cc(-c3cccs3)nc3ccccc23)o1	ELG1 DNA repair 12µM
CCN1C(=O)[C@@H]2C(C(=O)c3cnccn3)=NN[C@@H]2C1=O	ELG1 DNA repair inconclusive
COc1ccc(S(=O)(=O)NCCc2sc(-c3ccccc3)nc2C)cc1F	none (no result: Tb PFK inh, ELG1 DNA repair, Rango release inh, Rango complex inh, PKM2 activator)
Cc1ccc(-n2nc(C)c3c(C)c(CCC(=O)NCc4ccco4)c(C)nc32)cc1	ELG1 DNA repair 23µM
Cc1ccc(CNC(=O)CCc2c(C)nc3c(c(C)nn3-c3ccc(C)cc3)c2C)cc1	none
COc1ccc(Cl)cc1NC(=O)CSc1ccc2nnc(CCNS(=O)(=O)c3ccccc3)n2n1	none (no result: Tb PFK inh, ELG1 DNA repair, Rango release inh, Rango complex inh, PKM2 activator)
COc1ccc2oc(C(=O)Nc3ccc(S(=O)(=O)N(C)C4CCN(C)CC4)cc3)c(C)c2c1	none
COc1ccc(C(=O)NC(C)c2nc3ccccc3n2C)cc1OC (stereo not given)	none
COc1ccc(C(O)c2nc3ccccc3n2C)cc1OC (stereo not given)	ELG1 DNA repair 9.2µM
COc1ccc(/C=C2\SC(=S)N(CCCCCC(=O)Nc3cc(C)on3)C2=O)cc1OC	none
